{"source": "patent US20230414622A1", "about": "“PHARMACEUTICAL METHOTREXATE COMPOSITION” (Leopold MTX GmbH, priority 2020, published 2023)", "experiment": "Thermal unfolding profiles (Tycho NT.6 fluorimeter): temperature stability of the biologic with or without MTX", "assay_type": "physicochemical", "description": "To prepare the compositions according to the invention, the biologics were combined with methotrexate disodium at concentrations of 25 milligrams per milliliter, 16.6 milligrams per milliliter, 10.0 milligrams per milliliter, 7.14 milligrams per milliliter, and 5.0 milligrams per milliliter, respectively. Phosphate buffered saline (PBS buffer) pH 7.5 was used as the solvent. As reference composition in each case served the biopharmaceutical in equivalent concentration in PBS buffer pH 7.5 without the addition of methotrexate disodium.\nIn each case, the above-noted concentrations were the final concentration of the biopharmaceutical or the methotrexate in the pharmaceutical composition.\nAfter 20 days of incubation, the compositions were measured using a Tycho NT.6 fluorimeter (NanoTemper Technologies, Munich, Germany) according to the manufacturer's instructions to determine the thermal unfolding profiles of the biologics.\nThe inflection point of each curve indicates the denaturation temperature of the biopharmaceutical in the composition.", "data": [{"substance": "Abatacept: biologic binding lymphocyte activation antigen CD80 or CD86 (trade name: Orencia)", "values": [{"measurement": "temperature stability in composition with MTX", "setting": "MTX 10 milligrams per milliliter, PBS pH 7.5, 20 days of incubation", "value": 91.5, "unit": "°C"}, {"measurement": "denaturation temperature / temperature stability in reference composition without MTX", "setting": "PBS buffer pH 7.5, without MTX, after 20 days of incubation", "value": 85.9, "unit": "°C"}]}]}
